Assay outcomes (PubChem)
MITF act – activators of MITF-driven TRPM1 promoter reporter, primary screen, cell-based, SK-MEL-5, luciferase, single point; SK-MEL-5 TRPM1-promoter luciferase, 24 h; % of positive control, neutral wells = 0; activation, % at 12.5 µM; 300,000 tested, 0.75% active; AID 588334, 2011;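 active = mean activation of at least 80% with every replicate also reaching 80%; inconclusive = mean reaches 80% but some replicate falls short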;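 also: 0% = neutral control wells and 100% = parthenolide positive control wells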
PglD DTNB – C. jejuni PglD acetyltransferase inhibitors, primary screen, biochemical, DTNB colorimetric, single point. UDP-N-acetylbacillosamine N-acetyltransferase PglD (Campylobacter jejuni). purified PglD enzyme, DTNB colorimetric CoA detection. inhibition, % at 12.5 µM. 360,000 tested, 0.098% active. AID 602405, 2012; in the data active = inhibition above about 16%, passing the limit was not always enough; inconclusive = no clear call, values can overlap the other calls
UUG fidelity – alters start codon recognition fidelity in yeast | S. cerevisiae UUG-firefly luciferase reporter, luminescence/redox ratio | activity score, % at 18.7 µM | 350,000 compounds, 0.13% hits | AID 602363;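 active = replicate mean at a twofold rise or more, about +100% in these data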;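 note: firefly luciferase made from a UUG start codon reports start codon fidelity; reporter light over untreated wells divided by growth signal over untreated wells; some hits fall short of that in this replicate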
esBAF inh – Bmi1 luciferase reporter increase in mESCs, primary screen, esBAF inhibitor project, mouse ES cells, Bmi1 luciferase knock-in, single point; 24 h; 100% = twice the neutral-well signal; 350,000 tested, 2% active; reporter increase, % at 12.5 µM; in the data active = activation above about 40%; inconclusive = no clear call, values can overlap the other calls;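 also: 0% = median of the plate's neutral control wells and 100% = double that signal; a rise in the Bmi1 reporter signal indicates esBAF inhibition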
Wnt act – Wnt/beta-catenin pathway activators, primary screen, cell-based, plate reader, single point; activation, % at 9.35 µM; AID 743398, 2014; 300,000 tested, 1.2% active; Wnt/beta-catenin reporter cell assay, activator; in the data active = activation above about 30%, passing the limit was not always enough; inconclusive = no clear call, values can overlap the other calls;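 also: 0% = neutral control wells and 100% = positive control wells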
miR-122 sensor – miR-122 Renilla sensor signal increase in Huh7, primary screen, miR-122 inhibitor project, cell-based, single point, plate reader; 340,000 tested, 0.3% active; activation (reporter increase), % at 12.5 µM; AID 602342, 2012; Huh7 miR-122 Renilla luciferase sensor, 48 h; neutral wells = 0, positive control = 100;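 active = mean replicate activation score at least 90 and every replicate individually at or above 90; inconclusive = only one of the two criteria met; inactive = neither criterion met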;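 also: higher luciferase means less miR-122 activity so hits act as miR-122 inhibitors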
Numbers without * were called inactive; u = inconclusive; x = not tested or not shown; [ ] = dose if it differs, or a comment. Sampled rows, rich in hits. Any-hit rate of the full collection: about 2.8%.

Assay codes: A = MITF act; B = PglD DTNB; C = UUG fidelity; D = esBAF inh; E = Wnt act; F = miR-122 sensor
1) Fc1ccccc1Cn1nnc(-c2ccc3c(c2)OCO3)n1
  A: 67 | B: 1 | C: -16 | D: 22 | E: 71* | F: 7
2) Clc1ccccc1Cn1nnc(-c2ccccc2)n1
  A: 39 | B: x | C: x | D: x | E: 4 | F: x
3) CN(C)c1ccc(-c2nnn(Cc3ccccc3Br)n2)cc1
  A: 55 | B: 5 | C: -10 | D: 94* | E: 9 | F: 40
4) COc1ccc(C(=O)Cn2nnc(-c3ccccc3F)n2)cc1
  A: 14 | B: -2 | C: -28 | D: 6 | E: 10 | F: -3
5) C[C@@H]1CN([C@@H](C)CO)C(=O)c2cc(N(C)C)ccc2O[C@H]1CN(C)S(C)(=O)=O
  A: x | B: 1 | C: -4 | D: 4 | E: x | F: -2[16.7 µM]
6) COc1ccc(-c2ccc([C@@H]3[C@@H](C#N)N(C(=O)NC4CCCCC4)[C@H]3CO)cc2)cc1
  A: x | B: 0 | C: x | D: 2 | E: x | F: x
7) COc1ccccc1-c1ccc([C@H]2[C@@H](CO)N(C(=O)NC3CCCCC3)[C@H]2C#N)cc1
  A: x | B: -2 | C: 4 | D: 59* | E: x | F: x
8) CO[C@@H]1CN(C)C(=O)c2ccc(NC(=O)Nc3c(C)noc3C)cc2OC[C@H](C)NC[C@H]1C
  A: x | B: 3 | C: x | D: -7 | E: x | F: x
9) Cc1cc(NC(=O)c2ccc(Br)o2)ccc1NC(=O)c1ccco1
  A: 23 | B: -4 | C: -3 | D: 24 | E: 5 | F: -3
10) Cc1cc(NC(=O)c2ccccc2)ncc1NC(=O)c1ccco1
  A: 32 | B: 0 | C: -29 | D: x | E: 38* | F: -8
11) Cc1ccc(C(=O)Nc2ccc(NC(=O)c3ccco3)c(C)c2)cc1
  A: 91* | B: 1 | C: -17 | D: 28 | E: 13 | F: 0
12) Cc1cc(O)c(NC(=O)c2ccco2)cc1C
  A: 26 | B: -6 | C: -8 | D: 47* | E: 22 | F: -3
13) CCC(=O)Nc1cc(C)c(NC(=O)c2ccco2)cn1
  A: 3 | B: 0 | C: -23 | D: 5 | E: 0 | F: -1
14) CO[C@H]1CN(C)C(=O)c2cc(NC(=O)c3ccc(F)cc3)ccc2OC[C@H](C)N(C(=O)CN(C)C)C[C@H]1C
  A: x | B: 3 | C: 24 | D: 0 | E: x | F: x
15) Cc1ccc(NC(=O)NC(=O)N(c2ccccc2)S(C)(=O)=O)cc1
  A: x | B: 0 | C: -13 | D: 76* | E: x | F: 5
16) Cc1ccc(NC(=O)N(C)c2ccccc2)cc1
  A: 35 | B: x | C: -18 | D: 23 | E: 11 | F: x
17) COc1ccccc1CN1C[C@@H](C)[C@H](OC)CN(C)C(=O)c2ccc(NC(=O)Nc3ccccc3OC)cc2OC[C@H]1C
  A: x | B: -1 | C: 1 | D: 8 | E: x | F: -18[16.7 µM]
18) COc1cccc(-c2cc(C(=O)NCC3CCCO3)on2)c1 (stereo not drawn)
  A: 41 | B: -3 | C: -19 | D: 56* | E: 11 | F: -3
19) O=C(NCC1CCCO1)c1cc(-c2ccc(F)cc2)no1 (stereo not drawn)
  A: 12 | B: 6 | C: -26 | D: 27 | E: 39* | F: x
20) COc1ccc(-c2cc(C(=O)NCC3CCCO3)on2)cc1OC (stereo not drawn)
  A: 8 | B: -1 | C: -8 | D: 4 | E: 0 | F: -9
21) Cc1ccc(S(=O)(=O)c2cccc(S(=O)(=O)N3CCCC3)c2)cc1S(=O)(=O)N1CCCC1
  A: u | B: -2 | C: -14 | D: 3 | E: 5 | F: 110*
22) Cc1ccc(NC(=O)c2ccc(F)cc2)cc1S(=O)(=O)N1CCCCCC1
  A: -17 | B: x | C: x | D: 6 | E: -13 | F: 0
23) Cc1ccc(C(=O)OCC(=O)N2C(C)CCCC2C)cc1S(=O)(=O)N1CCCCC1 (stereo not drawn)
  A: -3 | B: x | C: x | D: x | E: 2 | F: x
24) Cc1ccc(C(=O)Nc2ccc3cn[nH]c3c2)cc1S(=O)(=O)N1CCCCC1
  A: 12 | B: -6 | C: -11 | D: 75* | E: 18 | F: 2
25) Cc1ccc(C(=O)Nc2cccc(O)c2)cc1S(=O)(=O)N1CCCCCC1
  A: u | B: -1 | C: -21 | D: 57* | E: 20 | F: -1

Laid out differently: 2 of the compounds above.
Results follow in this order: MITF act, PglD DTNB, UUG fidelity, esBAF inh, Wnt act, miR-122 sensor
#5 C[C@@H]1CN([C@@H](C)CO)C(=O)c2cc(N(C)C)ccc2O[C@H]1CN(C)S(C)(=O)=O
  x, 1, -4, 4, x, -2[16.7 µM]
#6 COc1ccc(-c2ccc([C@@H]3[C@@H](C#N)N(C(=O)NC4CCCCC4)[C@H]3CO)cc2)cc1
  x, 0, x, 2, x, x

New compounds follow:
Assay codes: A = MITF act; B = PglD DTNB; C = UUG fidelity; D = esBAF inh; E = Wnt act; F = miR-122 sensor
26) COC(=O)c1ccc(COC(=O)c2ccc(C)c(S(=O)(=O)N3CCCCC3)c2)cc1
  A: 96* | B: 9 | C: -11 | D: 43* | E: 9 | F: 4
27) Cc1[nH]n(-c2ccccc2)c(=O)c1N=Nc1ccccc1
  A: 24 | B: x | C: x | D: x | E: -2 | F: x
28) Cc1ccc(N=Nc2c(N)n(-c3ccccc3)[nH]c2=O)cc1
  A: 78 | B: 3 | C: -8 | D: 42* | E: x | F: 14
29) O=C(C[C@H]1C=C[C@H](NC(=O)C2CCOCC2)[C@@H](CO)O1)Nc1ccc(-c2ccccc2)cc1
  A: x | B: 0 | C: -9 | D: 8 | E: x | F: -1[16.7 µM]
30) CO[C@@H]1CN(C)C(=O)c2cc(NS(=O)(=O)CC(F)(F)F)ccc2OC[C@@H](C)N(C(=O)c2ccc3c(c2)OCO3)C[C@@H]1C
  A: x | B: 2 | C: 12 | D: -2 | E: x | F: x
31) CCOC(=O)c1cc(S(=O)(=O)NCCc2ccccc2)cn1C
  A: -1 | B: 6 | C: 3 | D: -2 | E: 1 | F: 114*
32) O=C(Nc1ccc(S(=O)(=O)NCCc2ccccc2)cc1)c1ccc(Br)o1
  A: x | B: 1 | C: 1 | D: -2 | E: x | F: 201*
33) COCC(=O)Nc1ccc(S(=O)(=O)NCCc2ccccc2)cc1
  A: 5 | B: 1 | C: -25 | D: 1 | E: x | F: 118*
34) CCC(=O)Nc1ccc(S(=O)(=O)NCCc2ccccc2)cc1
  A: x | B: -5 | C: -20 | D: -12 | E: -3 | F: u
35) Cc1cc(C)cc(NS(=O)(=O)c2ccc(NC(=S)NC(=O)c3ccc(Br)o3)cc2)c1
  A: -5 | B: -2 | C: -6 | D: -20 | E: x | F: 98*
36) C[C@@H]1CCCCO[C@H](CN(C)C(=O)Nc2ccc(F)cc2)[C@@H](C)CN([C@@H](C)CO)C(=O)c2cc(NS(=O)(=O)c3ccc(Cl)cc3)ccc2O1
  A: x | B: 3 | C: -7 | D: -1 | E: x | F: 22[16.7 µM]
37) COc1ccc(S(=O)(=O)N(C)C[C@H]2OCCCC[C@H](C)Oc3ccc(NS(=O)(=O)c4ccc(C)cc4)cc3C(=O)N([C@H](C)CO)C[C@@H]2C)cc1
  A: x | B: 2 | C: 2 | D: 6 | E: x | F: 2[16.7 µM]
38) CCn1c(O)c(C#N)c(C)cc1=O
  A: x | B: -3 | C: -10 | D: x | E: 48* | F: 1
39) Cc1cc(=O)n(CCO)c(O)c1C#N
  A: x | B: -5 | C: -17 | D: 4 | E: 22 | F: 1
40) COc1ccc(/C=N/NC(=O)c2ccn[nH]2)cc1CSc1ccccn1
  A: 33 | B: 1 | C: -17 | D: 45* | E: 0 | F: -1
41) COc1ccc(/C=N/NC(=O)c2cccc(Br)c2)cc1CSc1ccccn1
  A: 2 | B: x | C: x | D: x | E: x | F: x
42) O=C(CC1CCCCC1)NC1CCCC1
  A: x | B: x | C: x | D: 4 | E: x | F: -2
43) O=C(CC1CC2CCC1C2)NC1CCCCCCC1 (stereo not drawn)
  A: 29 | B: 3 | C: -2 | D: 60* | E: 12 | F: 7
44) C[C@@H]1CN([C@H](C)CO)C(=O)c2cccc(NC(=O)Nc3ccc(F)cc3)c2O[C@H]1CN(C)C(=O)Nc1ccc2c(c1)OCO2
  A: x | B: 2 | C: -3 | D: 32 | E: x | F: 7[16.7 µM]
45) CCCc1cc(C(=O)Nc2cc(Cl)ccc2O)no1
  A: u | B: 0 | C: -19 | D: 83* | E: 29 | F: 0
46) CCCc1cc(C(=O)Nc2cc(Br)ccc2O)no1
  A: x | B: -4 | C: -1 | D: 57* | E: 15 | F: -3
47) CC1=NN(c2ccccc2)C(=O)C1N=Nc1cccc(O)c1 (stereo not drawn)
  A: x | B: -4 | C: -32 | D: 52* | E: 1 | F: -4

Reformatted with values under each structure: 2 of the compounds above.
Fields – MITF act, PglD DTNB, UUG fidelity, esBAF inh, Wnt act, miR-122 sensor
35: Cc1cc(C)cc(NS(=O)(=O)c2ccc(NC(=S)NC(=O)c3ccc(Br)o3)cc2)c1
  -5, -2, -6, -20, x, 98*
31: CCOC(=O)c1cc(S(=O)(=O)NCCc2ccccc2)cn1C
  -1, 6, 3, -2, 1, 114*
